Measurements as given in article PMC2063102, “Enhancement of the anti-tumour effects of the antivascular agent 5,6-dimethylxanthenone-4-acetic acid (DMXAA) by combination with 5-hydroxytryptamine and bioreductive drugs” (British Journal of Cancer, 1998).

Experiment: in vivo
Conditions: female, C3H/HeN, mouse

Which MTD does the source give for `Cc1ccc2c(=O)c3cccc(CC(=O)O)c3oc2c1C` [DMXAA, 5,6-dimethylxanthenone-4-acetic acid] here?
The MTD was 90 µmol/kg.

What about the MTD (ip) of the same compound?
The MTD was 90 µmol/kg.
